This note sets out measurements from PMC4154654 (PLoS Neglected Tropical Diseases, 2014).

The test system of this data set is T84 cell monolayers. The data set is described as follows: Barrier function assay (FITC-dextran flux) in T84 cell monolayers. The settings on record: 24-h treatment, 20 µM and 200 µM.

Molecules are shown by their SMILES.

Regarding `O=C(O)Cc1ccccc1Nc1c(Cl)cccc1Cl` [diclofenac], the “effect on FITC-dextran flux across T84 cell monolayers” value is given as “did not change”.
